{
  "source": "paper PMC11320178",
  "about": "(Chemical Science, 2024)",
  "test": "Serum stability of crosslinked-UBI",
  "assay_type": "in vitro ADME",
  "settings": "human serum ∼20% diluted in PBS 7.4, 37 °C",
  "method_in_brief": "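The linear comparator is the same sequence with added N- and C-terminal Cys. Its Cys thiols were alkylated with iodoacetamide to prevent oxidative cyclization in physiological buffer.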",
  "data": [
    {"molecule": "CSCC[C@@H]1NC(=O)[C@H](CCCNC(=N)N)NC(=O)[C@H](CCCNC(=N)N)NC(=O)[C@H](CCCCN)NC(=O)[C@H](C)NC(=O)[C@H](CCCNC(=N)N)NC(=O)CNC(=O)[C@H]([C@@H](C)O)NC(=O)[C@@H]2CSC3c4cc(ccc4[B-](O)(O)[NH+]32)CNC(=O)CSC[C@@H](C(N)=O)NC(=O)CNC(=O)[C@H](CCCNC(=N)N)NC(=O)[C@H](CCCNC(=N)N)NC(=O)[C@H](CC(N)=O)NC(=O)[C@H](Cc2ccc(O)cc2)NC(=O)[C@H](CCC(N)=O)NC1=O", "note": "[Cyclic UBI]", "values": [
      {"measurement": "Half-life in human serum relative to the linear precursor (linear UBI)", "result": 10, "unit": "fold"}
    ]}
  ]
}
